B1: AKKYAKKEKAYAKKAEKAAKKAEAKAYKAAEAKKKAKAEAKKYAKAAKAEKKEYAAAEAKYKAEAAKAAAKEAAYEA (peptide)
chain: AKKYAKKEKAYAKKAEKAAKKAEAKAYKAAEAKKKAKAEAKKYAKAAKAEKKEYAAAEAKYKAEAAKAAAKEAAYEA
B2: AKKYAKKEKAYAKKAEKAAKKAEAKAYKAAEAKKKAKAEAKKYAKAAKAEKKEYAAAEAKYKAEAAKKAYKAEAAKAAAKEAAYEA (peptide)
chain: AKKYAKKEKAYAKKAEKAAKKAEAKAYKAAEAKKKAKAEAKKYAKAAKAEKKEYAAAEAKYKAEAAKKAYKAEAAKAAAKEAAYEA

The molecules below were run on SC-14 human Cop 1 specific T cell clone (assay: Proliferation of Cop 1 specific T cell line (3H-thymidine uptake)). Conditions: 10 µg antigen; relative to Cop 1.

In order of falling “3H-Thymidine incorporation, % Cop1, SC-14” value:
1. AKKYAKKEKAYAKKAEKAAKKAEAKAYKAAEAKKKAEAKYKAEAAKAAAKEAAYEA [TV-56]  117%
2. glatiramer acetate [compound 55396, reference compound]  107%
3. glatiramer acetate [compound 55296, reference compound]  95%
4. B1  83%
5. B2  65%
6. AKKYAKKEKAAKKAYKKEAKAKAAEAAAKEAAYEA [TV-35]  0%
